Values of other authors as cited in US12533408B2, “Treatment regimen for the treatment of autoimmune disorders” (Merck Patent GmbH, priority 2020, dated 2026).

Tested on: lymphocytes
Conditions: in vivo; cited from earlier work

Substance: alemtuzumab
- recovery to LLN range after infusion, B lymphocytes: 8 months
- recovery to LLN range after infusion, T lymphocytes: ~3 years
